The record followed here is ChEMBL document CHEMBL1795257, “Synthesis of new opioid derivatives with a propellane skeleton and their pharmacology: part 1” (Bioorg Med Chem Lett, 2011).

The chains behind the UniProt entries cited, without tags or fusion partners. Where a name states a change or a piece, a line headed by the entry shows the natural chain unless it says otherwise.
UniProt P41144: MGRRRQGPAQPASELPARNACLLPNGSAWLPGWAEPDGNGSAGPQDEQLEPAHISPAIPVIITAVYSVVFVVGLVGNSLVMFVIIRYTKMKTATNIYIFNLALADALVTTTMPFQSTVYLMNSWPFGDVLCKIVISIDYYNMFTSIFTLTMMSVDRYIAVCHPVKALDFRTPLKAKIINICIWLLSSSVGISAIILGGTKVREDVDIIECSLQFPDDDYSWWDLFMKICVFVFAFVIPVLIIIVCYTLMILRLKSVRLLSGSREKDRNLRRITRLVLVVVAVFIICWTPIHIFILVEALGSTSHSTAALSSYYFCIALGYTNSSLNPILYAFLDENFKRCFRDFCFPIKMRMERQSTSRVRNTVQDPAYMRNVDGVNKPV

This test concerns the target Kappa-type opioid receptor (Cavia porcellus, UniProt P41144). In words: Displacement of [3H]U69593 from kappa opioid receptor in guinea pig cerebellum homogenate by scintillation counting. Type of test: tissue-based.

The structures appear in SMILES notation.

On to `CCC12CCN(CC3(O)CC3)[C@H](Cc3ccc(O)cc31)C2(C)C`, for which the inhibitory constant (Ki) turned out to be 0.03 nM.

The term Ki denotes a dissociation constant, usually derived from enzyme kinetics or from competition with a known ligand. A higher Ki goes with weaker binding.
